Test results reported in ChEMBL document CHEMBL5143599, “Unraveling the Design and Discovery of c-Jun N-Terminal Kinase Inhibitors and Their Therapeutic Potential in Human Diseases” (J Med Chem, 2022).

Protein sequences, listed by entry. Tags and fused reporters are not part of them. Lines headed by an entry give the natural chain unless they say otherwise; changes in a name come on top.
UniProt P53779: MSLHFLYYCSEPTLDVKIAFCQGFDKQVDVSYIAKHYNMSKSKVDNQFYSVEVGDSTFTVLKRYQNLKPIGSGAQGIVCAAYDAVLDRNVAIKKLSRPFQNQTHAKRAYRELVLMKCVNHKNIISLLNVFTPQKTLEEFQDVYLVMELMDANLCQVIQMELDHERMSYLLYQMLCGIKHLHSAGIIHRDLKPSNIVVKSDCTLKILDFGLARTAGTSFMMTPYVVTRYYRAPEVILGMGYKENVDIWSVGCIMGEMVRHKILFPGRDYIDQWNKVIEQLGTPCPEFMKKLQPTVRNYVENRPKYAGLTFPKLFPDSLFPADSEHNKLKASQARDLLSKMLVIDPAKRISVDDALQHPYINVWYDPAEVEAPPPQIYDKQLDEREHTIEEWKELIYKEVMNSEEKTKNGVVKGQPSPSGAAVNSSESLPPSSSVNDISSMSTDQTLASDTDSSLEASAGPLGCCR

Target: Mitogen-activated protein kinase 10 (Homo sapiens, UniProt P53779)
Assay: Inhibition of human JNK3 using ATF2 as substrate incubated for 40 mins in presence of Mg-ATP mix by scintillation counter analysis

NC(=O)N1Cc2nc(-c3ccc(Cl)c(Cl)c3)n(-c3ccnc(N[C@H]4CCN(C(=O)C5CC5)C4)n3)c2C1
IC50: 2.9 nM
